From patent publication US20100184648A1, “Therapeutic agent for non-alcoholic fatty liver disease, and screening method for drug candidate compound for treatment or prevention of non-alcoholic fatty liver disease” (priority 2006, published 2010)

How the values were obtained:
[1] = system: Glutamate AMPA; assay: Receptor specificity: inhibition ratio, Glutamate AMPA; type: binding; settings: final concentration of 10 μM
Protocol: (§1) The inhibitory action of Compound A against various receptors listed in Table 2 was examined to evaluate the specificity of Compound A. The activities of the receptors were measured by using an appropriate assay system according to the property of the respective receptors. Further, the evaluation results of Compound A were calculated as an inhibition ratio at a final concentration of 10 μM. Here, the inhibition ratio was calculated based on a value of a control compound in each assay. As is apparent from the results shown in Table 2, it was confirmed that Compound A is specific to an MCH receptor.

[2] = system: DIO mice; assay: Effect on DIO mice (MHF diet), intraventricular administration; type: in vivo, mice (C57BL/6J); settings: 7.5 μg/day intraventricular
[3] = system: 173 kinds of physiologically functional proteins; assay: Specificity panel of 173 physiologically functional proteins; type: binding; settings: final concentration of 10 μM; other than the MCH receptors
Protocol: as §1

[4] = system: NASH mice induced by HFD; assay: Effect on NASH mice induced by HFD, intraventricular administration; type: in vivo, mice (C57BL/6J)
Description: Male mice (C57BL/6J, Nippon CLEA) were fed with HFD (a high fat diet, D12492, Research Diets Inc.) for about 1 year. The obtained mice were used as an NASH pathological model, and an effect of Compound A on the NASH mice was examined.
The mice were fed with HFD or a normal diet (CE-2). During the test period, the feed and water were given ad libitum, and the mice were not subjected to fasting.
In order to intraventricularly administer an agent, a cannula was inserted into mice at 62 weeks of age in the same manner as in Example 1. Incidentally, an antibiotic used was 100 mg/kg of Cefamezin α.
The numbers of mice allocated to the respective groups are as follows.
The intraventricular administration of Compound A was carried out in the same manner as in Example 1. Also, the vehicle was administered in the same manner as in Example 1.
At 4 weeks after the initiation of administration of an agent, the blood and organs of the mice were collected in the same manner as in Example 1. Incidentally, before the dissection of mice, the body fat percentage was measured using NMR (Minispec mq 7.5, Bruker Optics). The hepatic triglyceride, ALT and AST were measured in the same manner as in Example 2. Further, histopathological observation of the liver was carried out in the same manner as in Example 2.

[5] = system: NASH mice induced by MCD diet; assay: Effect on NASH mice induced by MCD diet, intraventricular administration; type: in vivo, mice (C57BL/6J)
Description: Male mice (C57BL/6J, Nippon CLEA) were fed with MCD diet (a methionine choline deficient diet) to produce mice in which NASH was induced, and an effect of Compound A on the NASH mice was examined.
In order to intraventricularly administer an agent, a cannula was inserted into mice at 16 to 17 weeks of age in the same manner as in Example 1. Incidentally, mice which were continued to be raised with a normal diet (CE-2) were subjected to sham surgery (only incision and suture of the dorsal skin).
After a sufficient period of time for recovery (1 to 2 weeks) from the insertion of cannula had passed, the mice were divided such that the body weights became equal between groups. The numbers of mice allocated to the respective groups are as follows. Incidentally, the mice were raised with the normal diet (CE-2) and at 4 days after initiation of administration of an agent, the diet was changed to a predetermined diet.
The intraventricular administration of Compound A was carried out in the same manner as in Example 1. Also, the vehicle was administered in the same manner as in Example 1. As the pellet-type MCD diet and control diet, ICN 960439 and ICN 960441 available from ICN Biomedicals were used, respectively.
On day 11 after initiation of loading of the MCD diet, the blood and organs of the mice were collected in the same manner as in Example 1. The biochemical parameters measured for the plasma sample from the heart were AST and ALT, which were measured with HITACHI Clinical analyzer 7070 (Hitachi Co., Ltd.).
Further, a portion of the liver was excised during dissection, and measurement of hepatic biochemical parameters, measurement of hepatic mRNA, and histopathological observation were carried out. The measurement of hepatic biochemical parameters and measurement of mRNA were carried out according to the following procedure. One lobe of the liver was excised and after the weight thereof was measured, it was cryopreserved. The cryopreserved one lobe of the liver was homogenized, and a lipid fraction was extracted from a portion of the resulting homogenate with Folch reagent. Then, the extracted lipid fraction was dried and hardened with nitrogen gas, and the triglyceride was measured using Determiner L TG II (Kyowa Medex). Further, by using a portion of the homogenate, TBARS (thiobarbituric acid reactive substance, one of the markers for oxidative stress), which is a parameter of lipid peroxide, was measured with reference to the method described in Method in Enzymology, vol. 186, p. 407 (1990). From the portion of the liver (50 mg) collected for measurement of mRNA, RNA was extracted using ISOGEN (NIPPON GENE), and cDNA was synthesized using Taqman RT reagents (Applied Biosystems). By using Taqman real time PCR (HT7900, Applied Biosystems), TNFα and IL-113, which are inflammatory cytokines, and the expression level of Cyp4A14, which is involved in the formation of lipid peroxide, were measured (the expression level was represented by a ratio to 18s rRNA). The histopathological observation was carried out according to the following procedure. The middle lobe of the liver was excised and fixed in a 10% neutral buffered formalin solution. A paraffin section was prepared according to a standard method, and HE staining and fat staining were carried out. Histopathological evaluation of tissue lesions including inflammatory cell infiltration and hepatocellular vacuolation (fatty change) was carried out by using the degree of the change and range of the distribution as indices.

[6] = HF diet, n = 6, grade Very slight

SMILES: CSCC[C@@H]1NC(=O)[C@@H](NC(=O)[C@H](CCCNC(=N)N)NC(C)=O)CSSC[C@@H](C(N)=O)NC(=O)CCCCNC(=O)[C@H](Cc2ccc(O)cc2)NC(=O)[C@H](C(C)C)NC(=O)[C@H](CCCNC(=N)N)NC(=O)CCCCNC1=O [Compound A, H2N-Cys-Ava-Tyr-Val-Arg-Ava-Met-Cys-Arg-C(═O)CH3]
- Inhibition ratio [1]: 8
- liver weight ([2]; FIG. 1(a)): decrease to a normal level
- plasma ALT ([2]; FIG. 1(b)): decrease to a normal level
- affinity for 173 kinds of physiologically functional proteins [3]: the affinity thereof could not be found other than the MCH receptors
- Hepatocellular vacuolation, Moderate (number of mice) ([4]; HF diet, n = 6, grade Moderate): 3
- Hepatocellular vacuolation, Significant (number of mice) ([4]; HF diet, n = 6, grade Significant): 0
- Hepatocellular vacuolation, Slight (number of mice) ([4]; HF diet, n = 6, grade Slight): 2
- Multifocal cell infiltration, Slight (number of mice) ([4]; HF diet, n = 6, grade Slight): 0
- Hepatocellular vacuolation, Very slight (number of mice) [4, 6]: 1
- Multifocal cell infiltration, Very slight (number of mice) [4, 6]: 3
- Single cell necrosis, Very slight (number of mice) [4, 6]: 0
- hepatic triglyceride level ([4]; HFD, 4 weeks of administration, FIG. 8(a)): the increase thereof was suppressed
- plasma ALT level ([4]; HFD, 4 weeks of administration, FIG. 8(b)): the increase thereof was suppressed
- plasma AST level ([4]; HFD, 4 weeks of administration, FIG. 8(c)): the increase thereof was suppressed
- liver pathology: lipid droplets and inflammatory cell infiltration ([4]; HFD, vs vehicle group, FIG. 9): both were reduced
- TBARS level in the liver ([5]; FIG. 6(a)): suppressed
- plasma AST level ([5]; day 11, 7.5 μg/day intraventricular, FIG. 2): the increase thereof was suppressed
- hepatic triglyceride level ([5]; day 11, FIG. 3): suppressed
- expression level of Cyp4A14 in the liver ([5]; mRNA, ratio to 18s rRNA, FIG. 6(b)): decreased
- expression level of TNFα in the liver ([5]; mRNA, ratio to 18s rRNA, FIG. 7(a)): decreased
- expression level of IL-1β in the liver ([5]; mRNA, ratio to 18s rRNA, FIG. 7(b)): decreased
- Multifocal cell infiltration, Moderate (number of mice) ([5]; n = 10, grade Moderate): 0
- Multifocal cell infiltration, Slight (number of mice) ([5]; n = 10, grade Slight): 4
- Single cell necrosis, Slight (number of mice) ([5]; n = 10, grade Slight): 0
- Multifocal cell infiltration, Very slight (number of mice) ([5]; n = 10, grade Very slight): 6
- Single cell necrosis, Very slight (number of mice) ([5]; n = 10, grade Very slight): 10
- liver pathology: lipid droplets and inflammatory cell infiltration ([5]; vs vehicle group, FIG. 4): both were reduced
